# Values of other authors as cited in patent US8877755B2, “Dopamine-agonist combination therapy for improving sleep quality” (priority 2004, dated 2014).
# Where a name gives a salt, the structure may show the parent alone.
# Conditions: mouse
smiles,measurement,value
CN1CCc2cccc3c2[C@H]1Cc1ccc(O)c(O)c1-3 [apomorphine HCl],LD50,> 50 mg/kg
